# Where “and” joins values, the source holds several entries; their conditions need not be identical. Equal entries are not always repeated. The entries are a selection whose mix differs from that of the whole data set. Inconclusive results are not listed. Calls of active or inactive are those of the source. Unless noted, calls come from the whole dose curve.
# Sequences of proteins named here, by UniProt entry; tags and fusion partners are left off.
# UniProt Q03181, whole entry: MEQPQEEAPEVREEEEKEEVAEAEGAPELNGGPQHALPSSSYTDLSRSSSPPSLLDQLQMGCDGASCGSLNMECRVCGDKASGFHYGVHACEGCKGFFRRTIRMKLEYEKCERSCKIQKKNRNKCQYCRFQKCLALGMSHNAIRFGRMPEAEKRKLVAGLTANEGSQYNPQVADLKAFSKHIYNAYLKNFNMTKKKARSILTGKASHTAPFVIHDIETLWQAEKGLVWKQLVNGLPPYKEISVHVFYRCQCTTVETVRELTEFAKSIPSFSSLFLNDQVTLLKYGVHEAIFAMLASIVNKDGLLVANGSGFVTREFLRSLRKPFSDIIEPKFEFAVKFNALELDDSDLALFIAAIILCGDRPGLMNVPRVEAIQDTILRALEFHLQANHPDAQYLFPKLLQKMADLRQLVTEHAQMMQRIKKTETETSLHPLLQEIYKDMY
# UniProt Q96RI1, whole entry: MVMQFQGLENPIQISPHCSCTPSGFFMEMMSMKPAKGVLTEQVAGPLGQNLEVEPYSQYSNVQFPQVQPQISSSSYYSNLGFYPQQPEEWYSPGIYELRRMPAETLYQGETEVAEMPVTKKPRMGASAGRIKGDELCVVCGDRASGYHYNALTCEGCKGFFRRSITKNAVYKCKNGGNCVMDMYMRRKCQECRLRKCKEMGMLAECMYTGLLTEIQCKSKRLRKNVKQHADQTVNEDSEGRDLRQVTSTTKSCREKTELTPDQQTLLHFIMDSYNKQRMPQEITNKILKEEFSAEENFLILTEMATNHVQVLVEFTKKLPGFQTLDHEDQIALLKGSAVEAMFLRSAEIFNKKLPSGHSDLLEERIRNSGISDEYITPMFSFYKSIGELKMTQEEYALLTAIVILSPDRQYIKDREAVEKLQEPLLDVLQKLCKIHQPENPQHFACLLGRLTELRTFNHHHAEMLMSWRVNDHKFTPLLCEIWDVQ
# UniProt P11473, whole entry: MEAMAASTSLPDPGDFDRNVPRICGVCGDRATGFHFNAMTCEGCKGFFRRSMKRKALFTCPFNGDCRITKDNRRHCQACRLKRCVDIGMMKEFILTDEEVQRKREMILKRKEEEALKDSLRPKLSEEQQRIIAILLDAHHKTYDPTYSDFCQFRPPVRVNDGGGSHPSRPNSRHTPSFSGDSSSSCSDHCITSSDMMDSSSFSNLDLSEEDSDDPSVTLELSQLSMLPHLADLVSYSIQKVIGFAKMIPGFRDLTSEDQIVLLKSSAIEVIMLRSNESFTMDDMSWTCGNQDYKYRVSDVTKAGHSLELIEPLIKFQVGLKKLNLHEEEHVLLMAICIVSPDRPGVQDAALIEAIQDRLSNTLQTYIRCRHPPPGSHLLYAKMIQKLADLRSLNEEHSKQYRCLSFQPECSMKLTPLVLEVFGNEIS
# Key:
# [1] = qHTS assay for small molecule agonists of the antioxidant response element (ARE) signaling pathway (AID 743202; active = well fitted activation curve with a large enough effect in the signal ratio in the repeat runs, not every such curve was filed as active; the % refers to the signal ratio; note: potency is the fitted concentration of half-maximal effect)
# Outline: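 Read-out: LiveBLAzer B/G FRET substrate fluorescence after 2 h at room temperature, following 16 h compound treatment at 37 C of HepG2 cells carrying an ARE-driven beta-lactamase reporter.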
# [2] = qHTS assay for small molecule agonists of the antioxidant response element (ARE) signaling pathway - cell viability counter screen (AID 743203); conditions: ARE-bla HepG2 viability, CellTiter-Glo luminescence, 16 h; note: nearly all actives have a fitted effect of over 55% in size
# Outline: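 Seeded at 2,000 cells/well, ARE-bla HepG2 cells were incubated 5 hrs before compound addition. After 16 hrs of treatment at 37C with 5% CO2, CellTiter-Glo reagent was added and luminescence read 30 min later.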
# [3] = biological target: Peroxisome proliferator-activated receptor delta (Homo sapiens) (UniProt Q03181); experiment: qHTS assay to identify small molecule agonists of the peroxisome proliferator-activated receptor delta (PPARd) signaling pathway (AID 743212); conditions: HEK293H PPARd-UAS-bla, beta-lactamase FRET ratio, 17 h
# Outline: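 GeneBLAzer PPARd UAS-bla HEK293H cells (beta-lactamase reporter under UAS control), plated and rested 5 h at 37 C, then exposed to compounds in DMSO at 37 C; LiveBLAzer B/G FRET substrate added, 2 h room temperature, fluorescence read.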
# [4] = qHTS assay to identify small molecule antagonists of the peroxisome proliferator-activated receptor delta (PPARd) signaling pathway - cell viability counter screen (AID 743213; active = well fitted cell-killing curve with a large enough effect in the repeat runs; note: nearly all actives have a fitted effect of over 50% in size); conditions: PPARd-bla HEK293H viability, CellTiter-Glo luminescence, 17 h
# Outline: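 Same-well viability: cells pre-incubated 5 h, dosed with compound plus 300 nM L165041, kept 17 h at 37 C, FRET substrate 2 h RT, then CellTiter-Glo 30 min RT and luminescence.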
# [5] = biological target: Bile acid receptor (Homo sapiens) (UniProt Q96RI1); experiment: qHTS assay to identify small molecule antagonists of the farnesoid-X-receptor (FXR) signaling pathway (AID 743217; active = well fitted inhibition curve with a large enough effect in the signal ratio in the repeat runs, not every such curve was filed as active; the % refers to the signal ratio); conditions: HEK293T FXR-UAS-bla, beta-lactamase ratio, CDCA-stimulated, 16 h; at 62.6 µM (top of the series)
# From the text: U.S. Tox21 Program National Center for Advancing Translational Sciences [NCATS] NIH Chemical Genomics Center [NCGC] U.S. Environmental Protection Agency [EPA] National Institutes of Environmental Health Sciences [NIEHS] National Toxicology Program [NTP] U.S. Food and Drug Administration [FDA] Tox21 Assay Overview: The farnesoid-X-receptor (FXR), a nuclear hormone receptor, is highly expressed in liver, intestine, kidney and adrenal cortex. Natural ligands of FXR are the bile acids (Cholic acid, Chenodeoxy cholic acid etc). FXR is an important regulator of diverse metabolic pathways, including the bile acid homeostasis, lipid and glucose metabolisms. FXR regulates the expression of target genes by binding either as a monomer or as a heterodimer with the retinoid X receptor (RXR). Numerous studies have reported that FXR exerts protective function during cholestasis, diabetes, liver regeneration, and cancer. To identify compounds that inhibit FXR signaling, GeneBLAzer FXR-UAS-bla HEK 293T cell line (Invitrogen, Carlsbad, CA) containing a beta-lactamase reporter gene under the control of a UAS response element was used to screen the Tox21 10K compound library.
# Tox21 Assay Protocol Summary: FXR-bla cells were dispensed at 5000 cells/5uL/well in 1536-well black wall/clear bottom plates using a Multidrop Combi (Thermo Fisher Scientific, Waltham, MA) dispenser. After the assay plates were incubated at 37C and 5% CO2 for 5 h, 23 nL of compounds dissolved in DMSO, positive controls or DMSO only was transferred to the assay plate by a Pintool station (Kalypsys, San Diego, CA), followed by addition of 1 uL Chenodeoxycholic acid (50 uM, final concentration in the wells). The assay plates were incubated at 37C for 16 h. After 1 uL of LiveBLAzerTM B/G FRET substrate was added using a Bioraptr Flying Reagent Dispenser (FRD) workstation (Beckman Coulter, Indianapolis, IN), the plates were incubated at room temperature for 2 h, and fluorescence intensity was measured by an Envision plate reader (PerkinElmer, Shelton, CT).
# [6] = biological target: Bile acid receptor (Homo sapiens) (UniProt Q96RI1); experiment: qHTS assay to identify small molecule agonists of the farnesoid-X-receptor (FXR) signaling pathway (AID 743220; active = well fitted activation curve with a large enough effect in the signal ratio in the repeat runs, not every such curve was filed as active; the % refers to the signal ratio); conditions: HEK293T FXR-UAS-bla, beta-lactamase FRET ratio, 16 h; at 62.6 µM (top of the series)
# [7] = qHTS assay to identify small molecule antagonists of the farnesoid-X-receptor (FXR) signaling pathway - cell viability counter screen (AID 743221; active = well fitted cell-killing curve with a large enough effect in the repeat runs, not every such curve was filed as active; note: nearly all actives have a fitted effect of over 50% in size); conditions: FXR-bla HEK293T viability, CellTiter-Glo luminescence, 16 h
# Outline: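 CellTiter-Glo, 30 min RT, luminescence; same wells as the LiveBLAzer FRET read. Cells: FXR-UAS-bla HEK 293T. Treatment: compound with chenodeoxycholic acid 50 uM final, 16 h at 37 C.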
# [8] = biological target: Vitamin D3 receptor (Homo sapiens) (UniProt P11473); experiment: qHTS assay to identify small molecule agonists of the vitamin D receptor (VDR) signaling pathway (AID 743222); conditions: HEK293T VDR-UAS-bla, beta-lactamase FRET ratio, 16 h
# Outline: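 Quantitative HTS agonist-mode screen: compounds in DMSO were pin-transferred onto VDR-bla cells and incubated 16 h at 37C, 5% CO2. Reporter activity was detected with LiveBLAzer B/G FRET substrate after 2 h at room temperature.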
# [9] = biological target: Vitamin D3 receptor (Homo sapiens) (UniProt P11473); experiment: qHTS assay to identify small molecule antagonists of the vitamin D receptor (VDR) signaling pathway (AID 743223; active = well fitted inhibition curve with a large enough effect in the signal ratio in the repeat runs, not every such curve was filed as active; the % refers to the signal ratio); conditions: VDR-UAS-bla HEK293T, beta-lactamase FRET ratio, 16 h
# Outline: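 After VDR-bla cells are plated and left 4 h at 37C, DMSO-dissolved compounds and 3 nM (final) calcitriol agonist are added. Incubation continues 16 h at 37C; FRET beta-lactamase substrate then develops 2 h at room temperature.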
# [10] = biological target: Peroxisome proliferator-activated receptor delta (Homo sapiens) (UniProt Q03181); experiment: qHTS assay to identify small molecule antagonists of the peroxisome proliferator-activated receptor delta (PPARd) signaling pathway (AID 743215; active = well fitted inhibition curve with a large enough effect in the signal ratio in the repeat runs, not every such curve was filed as active; the % refers to the signal ratio;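 note: cells stimulated with agonist L165041 at 300 nM final during compound exposure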); conditions: HEK293H PPARd-UAS-bla, beta-lactamase FRET ratio, antagonist, 17 h
# Outline: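 Inhibition of L165041-driven (300 nM final) PPARd signaling is scored in HEK293H UAS-bla cells. Exposure lasts 17 h at 37 C; beta-lactamase activity is then read by FRET substrate fluorescence after 2 h at room temperature.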
# % is set by controls: 0 for no effect and ±100 for the full control effect.
smiles,measurement,setting,value
Cc1c([N+](=O)[O-])cccc1[N+](=O)[O-],Potency,[1],inactive
same,"viability change, negative = cytotoxic",[2]; at 73.3 µM (top of the series),inactive: 11.1% and inactive: 2.83%
same,activation,[3]; at 62.6 µM (top of the series),inactive: 1.03%
same,"viability change, negative = cytotoxic",[4]; at 62 µM (top of the series),inactive: 6.58% and inactive: 1.93%
same,"activity change, negative = inhibition",[5],inactive: -8.6% and inactive: 9.84%
same,activation,[6],inactive: -0.653% and inactive: 0.925%
same,"activity change, negative = cytotoxicity",[7]; at 62.6 µM (top of the series),inactive: 5.02% and inactive: 0.421%
same,activation,[8]; at 63.5 µM (top of the series),inactive: -1.44% and inactive: -0.522%
same,"activity change, negative = inhibition",[9]; at 61 µM (top of the series),inactive: 7.88% and inactive: -22.7%
CCOC(=O)Cl,"ratio activity, negative = inhibition",[10]; at 62 µM (top of the series),inactive: -11.7%
O=[N+]([O-])c1cccc([N+](=O)[O-])c1,Potency,[1],active: 31.9 µM
same,activation,[3]; at 81.1 µM (top of the series),inactive: 6.89%
Cc1ccc([N+](=O)[O-])c([N+](=O)[O-])c1,"viability change, negative = cytotoxic",[2]; at 94.8 µM (top of the series),inactive: -6.98%
same,"activity change, negative = cytotoxicity",[7]; at 62.6 µM (top of the series),inactive: -24.3%
same,"activity change, negative = cytotoxicity",[7]; at 81.1 µM (top of the series),inactive: 2.27%
same,activation,[8]; at 63.5 µM (top of the series),inactive: -7.83%
same,activation,[8]; at 81.1 µM (top of the series),inactive: 2.76%
same,"activity change, negative = inhibition",[9]; at 61 µM (top of the series),inactive: 24.5%
same,"activity change, negative = inhibition",[9]; at 78.8 µM (top of the series),inactive: 10.5%
CC(C)OP(C)(=O)OC(C)C,Potency,[1],inactive
same,"viability change, negative = cytotoxic",[2]; at 73.3 µM (top of the series),inactive: -9.01% and inactive: 3.41%
same,activation,[3]; at 62.6 µM (top of the series),inactive: -0.109% and inactive: -2.59%
same,"viability change, negative = cytotoxic",[4]; at 62 µM (top of the series),inactive: -11.1% and inactive: 9.24%
same,"activity change, negative = cytotoxicity",[7]; at 62.6 µM (top of the series),inactive: 11.4% and inactive: 14.4%
Cc1cccc([N+](=O)[O-])c1[N+](=O)[O-],"viability change, negative = cytotoxic",[2]; at 73.3 µM (top of the series),inactive: 22.7%
same,activation,[3]; at 62.6 µM (top of the series),inactive: -7.14%
COP(C)(=O)OC,Potency,[1],inactive
same,"viability change, negative = cytotoxic",[2]; at 73.3 µM (top of the series),inactive: -0.218%
same,"viability change, negative = cytotoxic",[2]; at 94.8 µM (top of the series),inactive: -2.43%
same,activation,[3]; at 62.6 µM (top of the series),inactive: 6.3%
same,activation,[3]; at 81.1 µM (top of the series),inactive: 1.05%
same,"viability change, negative = cytotoxic",[4]; at 80.4 µM (top of the series),inactive: -1.43%
same,"ratio activity, negative = inhibition",[10]; at 62 µM (top of the series),inactive: -8.07%
same,"ratio activity, negative = inhibition",[10]; at 80.4 µM (top of the series),inactive: -6.76%
same,"activity change, negative = cytotoxicity",[7]; at 62.6 µM (top of the series),inactive: -8.23%
same,"activity change, negative = cytotoxicity",[7]; at 81.1 µM (top of the series),inactive: -1.25%
same,activation,[8]; at 63.5 µM (top of the series),inactive: 0.369%
same,activation,[8]; at 81.1 µM (top of the series),inactive: -1.53%
same,"activity change, negative = inhibition",[9]; at 61 µM (top of the series),inactive: -9.95%
same,"activity change, negative = inhibition",[9]; at 78.8 µM (top of the series),inactive: -8.48%
CP(=O)(O)OCCC[Si](O)(O)O,Potency,[1],inactive
same,"viability change, negative = cytotoxic",[2]; at 73.3 µM (top of the series),inactive: 0.568%
same,activation,[3]; at 62.6 µM (top of the series),inactive: 1.72%
same,"viability change, negative = cytotoxic",[4]; at 62 µM (top of the series),inactive: -0.39%
same,"ratio activity, negative = inhibition",[10]; at 62 µM (top of the series),inactive: 6.01%
same,"activity change, negative = inhibition",[5],inactive: 5%
same,activation,[6],inactive: -0.628%
same,"activity change, negative = cytotoxicity",[7]; at 62.6 µM (top of the series),inactive: 13.8%
same,activation,[8]; at 63.5 µM (top of the series),inactive: 10.1%
CCOP(=O)(CC)OCC,Potency,[1],inactive
same,"viability change, negative = cytotoxic",[2]; at 73.3 µM (top of the series),inactive: 2.63%
same,"viability change, negative = cytotoxic",[4]; at 62 µM (top of the series),inactive: 1.09%
same,"activity change, negative = inhibition",[5],inactive: 0.623%
same,activation,[6],inactive: 0.988%
same,"activity change, negative = cytotoxicity",[7]; at 62.6 µM (top of the series),inactive: -0.175%
same,activation,[8]; at 63.5 µM (top of the series),inactive: -2.31%
same,"activity change, negative = inhibition",[9]; at 61 µM (top of the series),inactive: 7.33%
CC(C)N(CCO)C(C)C,Potency,[1],inactive
same,"viability change, negative = cytotoxic",[2]; at 73.3 µM (top of the series),inactive: 4.85%
same,"viability change, negative = cytotoxic",[4]; at 62 µM (top of the series),inactive: 0.376%
same,"activity change, negative = inhibition",[5],inactive: 0.867%
same,activation,[6],inactive: 3.46%
same,"activity change, negative = cytotoxicity",[7]; at 62.6 µM (top of the series),inactive: -22.1%
N=C(N)N[N+](=O)[O-],Potency,[1],inactive
same,"viability change, negative = cytotoxic",[2]; at 94.8 µM (top of the series),inactive: -5.72%
same,activation,[3]; at 81.1 µM (top of the series),inactive: -4.22%
same,"viability change, negative = cytotoxic",[4]; at 80.4 µM (top of the series),inactive: 19.1%
same,"ratio activity, negative = inhibition",[10]; at 80.4 µM (top of the series),inactive: -0.446%
same,"activity change, negative = cytotoxicity",[7]; at 81.1 µM (top of the series),inactive: 9.62%
same,activation,[8]; at 81.1 µM (top of the series),inactive: -1.61%
same,"activity change, negative = inhibition",[9]; at 78.8 µM (top of the series),inactive: 5.85%
CCOP(=O)(CC)Oc1ccc([N+](=O)[O-])cc1 (configuration not stated),"viability change, negative = cytotoxic",[2]; at 73.3 µM (top of the series),inactive: -1.72%
same,activation,[3]; at 62.6 µM (top of the series),inactive: 9.42%
same,"activity change, negative = inhibition",[5],inactive: -15.4%
same,"activity change, negative = cytotoxicity",[7]; at 62.6 µM (top of the series),inactive: -0.754%
same,activation,[8]; at 63.5 µM (top of the series),inactive: 14.1%
same,"activity change, negative = inhibition",[9]; at 61 µM (top of the series),inactive: -25.7%
